Binding of CDR-mutated scFvs to a peptide of the spike HR2 region

All variants were tested on one target, the spike HR2 peptide PDVDLGDISGINAS (SARS-CoV-2).

Parent: Ab-95, a human scFv built as VH, a 15-residue (Gly4Ser)3 linker, VL. Only the CDRs of the light chain vary.
VH: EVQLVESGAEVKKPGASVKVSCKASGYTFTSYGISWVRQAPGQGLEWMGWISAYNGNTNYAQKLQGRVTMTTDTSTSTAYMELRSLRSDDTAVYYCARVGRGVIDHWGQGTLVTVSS
VL: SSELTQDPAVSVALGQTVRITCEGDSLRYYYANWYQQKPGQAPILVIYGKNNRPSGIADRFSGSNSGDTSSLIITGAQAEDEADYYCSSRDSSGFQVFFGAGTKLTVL

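Phage display of a naive human antibody library on the peptide gave the parent. Variants in AAYL52 differ from the parent at up to three CDR positions; double and triple changes were sampled at random. In AlphaSeq, yeast of one mating type display the scFv and yeast of the other type display the target. The frequency of each diploid, read from paired DNA barcodes, reflects how well the two displayed proteins bind. A regression on co-assayed BCL2-family reference pairs converts the normalised counts of each replicate to an apparent Kd. Each pool was mated in three replicate cultures.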

Changes read parent residue, position, new residue, counted from the first residue of the VL shown. All variants listed here change P54 of the VL, counted from its first residue. Scale: log10 of Kd in nM, estimated from mating counts; low values are strong binders. Averages over replicates are reported, and they cover detected replicates only. "no signal" marks a missing value. The strain was present, yet no cells mated with the target were sequenced in any replicate, which points to weak or no binding. Entries are sorted by rising average, undetected variants last. Background: pairings of library AAYL52 with three empty control strains gave a value in 28% of cases (median 3.91, 5th percentile 2.90). Values in that range, when seen in few replicates, are hard to tell from nonspecific mating. Also given: how often the same scFv was detected with the empty control strains.

| changes | mean log10 Kd (nM) | detected | signal with controls |
|---|---|---|---|
| R28M/Y30Q/P54D | 0.81 | 3/3 | 3/9 |
| E23Q/Y31Q/P54F | 1.18 | 3/3 | 5/9 |
| Y30Q/P54C/S92Y | 1.18 | 3/3 | 2/9 |
| E23H/R28K/P54M | 1.52 | 3/3 | 0/9 |
| E23K/P54S | 1.71 | 3/3 | 3/9 |
| E23S/P54D | 1.83 | 3/3 | 2/9 |
| P54M | 2.17 | 3/3 | 3/9 |
| D25Q/P54A | 2.29 | 3/3 | 1/9 |
| R53T/P54M/S55N | 2.33 | 3/3 | 2/9 |
| K50N/N52R/P54V | 2.35 | 3/3 | 4/9 |
| P54I | 2.40 | 3/3 | 2/9 |
| Y30K/P54Y/F98R | 2.51 | 3/3 | 0/9 |
| P54S/S89G | 2.53 | 3/3 | 3/9 |
| N52Q/P54L/S92F | 2.66 | 3/3 | 2/9 |
| P54E/S88M/D91S | 2.69 | 3/3 | 0/9 |
| R28T/P54C | 2.75 | 3/3 | 2/9 |
| P54L/S92P | 2.83 | 3/3 | 4/9 |
| Y29T/K50F/P54M | 2.87 | 3/3 | 1/9 |
| Y29T/Y31K/P54E | 2.96 | 3/3 | 2/9 |
| D25I/R28C/P54V | 3.01 | 3/3 | 3/9 |
| Y31G/P54E/D91F | 3.04 | 3/3 | 3/9 |
| R28E/P54W/S93G | 3.09 | 2/3 | 2/9 |
| E23H/D25L/P54G | 3.12 | 3/3 | 3/9 |
| D25N/N52V/P54K | 3.33 | 2/3 | 0/9 |
| E23P/P54L/F95A | 3.37 | 3/3 | 0/9 |
| A32I/P54W/S55E | 3.46 | 1/3 | 5/9 |
| Y29A/P54M/F98R | 3.48 | 2/3 | 1/9 |
| L27Y/P54H | 3.58 | 3/3 | 2/9 |
| P54W/Q96W/F98P | 3.65 | 1/3 | 1/9 |
| P54G/R90N/Q96R | 3.67 | 3/3 | 3/9 |
| N33C/K50M/P54T | 3.76 | 1/3 | 3/9 |
| E23Y/P54E/G94C | 3.77 | 1/3 | 0/9 |
| N33E/P54T/S55R | 3.79 | 3/3 | 4/9 |
| A32M/P54D/G94S | 3.83 | 1/3 | 2/9 |
| L27E/P54L/S89D | 3.84 | 1/3 | 2/9 |
| R53E/P54E | 3.88 | 3/3 | 2/9 |
| Y29P/P54R/S89T | 3.94 | 2/3 | 4/9 |
| S26H/L27T/P54N | 3.95 | 2/3 | 1/9 |
| P54T/S89D/G94T | 3.96 | 2/3 | 0/9 |
| A32G/P54R/S55L | 4.06 | 1/3 | 1/9 |
| R28G/N33K/P54N | 4.08 | 1/3 | 0/9 |
| K50V/R53E/P54S | 4.09 | 1/3 | 3/9 |
| G24T/R53G/P54F | 4.13 | 2/3 | 2/9 |
| N51Y/N52W/P54A | 4.14 | 2/3 | 4/9 |
| R28I/P54F/D91Y | 4.16 | 2/3 | 2/9 |
| L27D/R28A/P54A | 4.16 | 3/3 | 6/9 |
| K50C/P54T/S92H | 4.19 | 1/3 | 2/9 |
| P54R/S89N/S92L | 4.26 | 1/3 | 1/9 |
| R28F/A32D/P54E | 4.29 | 2/3 | 2/9 |
| L27H/P54K/S89K | 4.39 | 2/3 | 0/9 |
| Y30V/N51P/P54E | 4.61 | 1/3 | 5/9 |
| L27G/P54Y/F98G | 4.77 | 3/3 | 5/9 |
| R28F/N52K/P54M | 4.82 | 1/3 | 0/9 |
| E23C/R53H/P54R | 4.90 | 1/3 | 0/9 |
| R53P/P54D/F95W | 5.45 | 1/3 | 3/9 |
| Y30E/A32Q/P54Q | no signal | 0/3 | 1/9 |
| P54C/R90P | no signal | 0/3 | 2/9 |
| N33Q/P54Q/S92T | no signal | 0/3 | 2/9 |
| Y31W/P54D/F98I | no signal | 0/3 | 1/9 |
| N51Y/N52V/P54W | no signal | 0/3 | 3/9 |
| G24R/P54L/S92W | no signal | 0/3 | 2/9 |
| Y29C/P54E/S88H | no signal | 0/3 | 2/9 |
| N52E/P54G/S89P | no signal | 0/3 | 1/9 |
| G49T/R53Q/P54N | no signal | 0/3 | 4/9 |
| S26N/P54Q/G94E | no signal | 0/3 | 2/9 |
| K50W/P54K/S88G | no signal | 0/3 | 3/9 |
| N52V/P54I/S55L | no signal | 0/3 | 0/9 |
| R28T/P54D/Q96T | no signal | 0/3 | 1/9 |
| R28I/R53Q/P54L | no signal | 0/3 | 2/9 |

A selection of 9 entries from above:

changes,mean log10 Kd (nM),detected,signal with controls
R53T/P54M/S55N,2.33,3/3,2/9
G24R/P54L/S92W,no signal,0/3,2/9
E23Q/Y31Q/P54F,1.18,3/3,5/9
E23Y/P54E/G94C,3.77,1/3,0/9
D25N/N52V/P54K,3.33,2/3,0/9
E23H/R28K/P54M,1.52,3/3,0/9
E23K/P54S,1.71,3/3,3/9
A32I/P54W/S55E,3.46,1/3,5/9
S26H/L27T/P54N,3.95,2/3,1/9

Parent in this assay: reference entry 2.31, copy in this library 2.25.

Reference: Engelhart et al. 2022, doi:10.1038/s41597-022-01779-4. File: FLAb, binding data.